Data reported in patent US11655492B2, “Activated formylglycine-generating enzymes and methods of producing and using the same” (R.P. Scherer Technologies, LLC, priority 2015, dated 2023).
Entries after “also recorded” stand apart in the source; their conditions may differ.

Protein sequences, listed by entry. Tags and fused reporters are not part of them. Lines headed by an entry give the natural chain unless they say otherwise; changes in a name come on top.
UniProt Q9F3C7: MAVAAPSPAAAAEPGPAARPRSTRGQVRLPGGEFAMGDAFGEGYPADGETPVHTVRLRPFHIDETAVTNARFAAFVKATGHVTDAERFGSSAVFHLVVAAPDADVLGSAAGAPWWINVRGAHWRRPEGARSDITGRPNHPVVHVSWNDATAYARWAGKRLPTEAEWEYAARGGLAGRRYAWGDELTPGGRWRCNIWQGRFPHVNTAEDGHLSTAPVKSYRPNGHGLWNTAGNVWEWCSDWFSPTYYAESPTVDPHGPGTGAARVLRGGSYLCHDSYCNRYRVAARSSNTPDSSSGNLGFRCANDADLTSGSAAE

Key:
[1] = target: S. coelicolor (“Sc”) FGEs (Streptomyces coelicolor, UniProt Q9F3C7)
recombinant human FGE = target: T1, recombinant human FGE (Homo sapiens, UniProt Q8NBK3); assay: In vivo conversion in CHO cells expressing recombinant human FGE and αHER2 mAb, additives in culture medium
T1 sequence (Q8NBK3 34-374): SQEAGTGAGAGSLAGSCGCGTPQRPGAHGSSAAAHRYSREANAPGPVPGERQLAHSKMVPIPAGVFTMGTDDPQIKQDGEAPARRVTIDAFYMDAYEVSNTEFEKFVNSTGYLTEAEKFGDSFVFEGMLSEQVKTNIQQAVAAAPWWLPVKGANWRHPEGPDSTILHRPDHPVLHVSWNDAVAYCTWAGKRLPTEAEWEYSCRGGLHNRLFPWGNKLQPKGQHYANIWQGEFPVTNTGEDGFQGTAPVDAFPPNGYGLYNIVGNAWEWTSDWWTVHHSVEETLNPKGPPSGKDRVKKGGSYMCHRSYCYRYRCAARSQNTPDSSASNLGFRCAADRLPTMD

Sc-FGE = Sc-FGE (Streptomyces coelicolor, UniProt Q9F3C7); assay type: biochemical, S. coelicolor
FGE = target: T2, FGE (Homo sapiens, UniProt Q8NBK3); assay: FGE reaction mixtures with reductants or additives (product formation); assay type: biochemical
T2 construct: made in house
T2 sequence (Q8NBK3 with tags, fused parts or gaps isoform Q8NBK3-4): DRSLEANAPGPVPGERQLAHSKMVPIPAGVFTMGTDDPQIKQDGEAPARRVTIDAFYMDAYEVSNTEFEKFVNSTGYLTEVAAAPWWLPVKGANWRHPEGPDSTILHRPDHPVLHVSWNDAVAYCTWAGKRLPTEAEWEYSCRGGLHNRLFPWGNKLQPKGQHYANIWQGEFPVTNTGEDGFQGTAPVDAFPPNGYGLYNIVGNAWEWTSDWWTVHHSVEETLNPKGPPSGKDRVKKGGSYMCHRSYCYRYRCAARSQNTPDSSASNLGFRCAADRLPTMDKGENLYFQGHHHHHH

Question: What does the source list for O=S(=O)([O-])[O-].[Cu+2] [Cu^2+, copper(II) sulfate]?
Answer: conversion [1]: enhanced; effect on conversion (recombinant human FGE): increased conversion; also recorded: improved conversion; also recorded: same effect on conversion as 50 μM; effect of pretreatment on specific activity (Sc-FGE): significantly increased; effect of treatment on specific activity (Sc-FGE): increased specific activity; effect on product formation when added directly to the reaction (FGE): significantly inhibited
